# Apparent affinities of Ab-14 variants for a coronavirus HR2 peptide

Source: Li et al. 2023 (doi:10.1038/s41467-023-39022-2), MIT Lincoln Laboratory and A-Alpha Bio; data file from the FLAb repository.

Antigen: PDVDLGDISGINAS, a 14-residue peptide of the SARS-CoV-2 spike HR2 region.

Parent: Ab-14, a human scFv built as VH, a 15-residue (Gly4Ser)3 linker, VL. Only the CDRs of the heavy chain vary.
VH: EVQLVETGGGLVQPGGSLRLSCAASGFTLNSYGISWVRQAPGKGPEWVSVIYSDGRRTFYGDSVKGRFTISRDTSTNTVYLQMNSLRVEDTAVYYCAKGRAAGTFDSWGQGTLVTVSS
VL: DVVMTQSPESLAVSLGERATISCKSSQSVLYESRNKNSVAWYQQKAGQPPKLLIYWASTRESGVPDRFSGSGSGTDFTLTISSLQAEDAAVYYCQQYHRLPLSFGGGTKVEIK

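The starting antibody came from a phage panning campaign against this peptide. These sequences belong to a second round, designed from the earlier measurements on random variants of the parent. Several design methods are mixed in this list. Affinity was read by AlphaSeq, a pooled yeast mating assay with surface-displayed partners. The frequency of each diploid, read from paired DNA barcodes, reflects how well the two displayed proteins bind. Each replicate has its own calibration line, from reference interactions of the BCL2 family. There are six technical replicates.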

Each variant is given by its three heavy chain CDRs, as the data file delimits them; those of the parent are GFTLNSYGIS, VIYSDGRRTFYGDSVK, GRAAGTFDS.
This list holds designs with more than six substitutions.
The Kd shown is the geometric mean over detected replicates; a lower Kd is a better binder.
A pair that was not seen in any replicate is written "nd"; this usually means weak binding, but a binder can also be missed.

* GFNLNEYGIS | VIYADGRRTFYTDDVK | GEFAGTFDV = 580 pM (6 of 6 replicates; controls 0 of 18)
* GQDINEYGIS | VIYADGVRTQYSDSVK | SGTDVAMTV = nd (0 of 6 replicates; controls 0 of 18)
* GFSLDEYGIS | VIYADGMRTAYSDSVK | GNVAGTFDL = 680 pM (6 of 6 replicates; controls 0 of 18)
* GFDLNEYGVS | VIYADGIRTKYADSFK | GDVVVALFQ = nd (0 of 6 replicates; controls 0 of 18)
* GFDLNEYGIS | VIYADGKRTAYSDSVK | GQTAGTFDV = 300 pM (6 of 6 replicates; controls 0 of 18)
* GFDLNEYGIS | VIYADGVRTFYTDSVK | GANAGTFDQ = 12 nM (4 of 6 replicates; controls 1 of 18)
* GFDLNEYGIS | VIYADGKRTAYADSVK | GNVAGTFDK = 280 pM (6 of 6 replicates; controls 1 of 18)
* GFDLNEYGIS | VIYADGRRTAYADNVK | GNVAGTFDT = 1.5 nM (6 of 6 replicates; controls 0 of 18)
* GFDLNEYGIS | VIYADGRRTAYIDSVK | GNIAGTFDS = 130 pM (6 of 6 replicates; controls 0 of 18)
* GFDLNEYGIS | VIYADGHRTFYSDSVK | GQSAGTFDL = 590 pM (6 of 6 replicates; controls 0 of 18)
* GFDLNEYGIS | VIYADGMRTAYADSVK | GNLAGTFDV = 110 pM (6 of 6 replicates; controls 1 of 18)
* GFDLDEYGIS | VIYADGVRTAYADSVK | GNQAGTFDL = 4.0 nM (6 of 6 replicates; controls 1 of 18)
* GDDLAEYGVS | VIYADGKRTEYSDHVK | GENGGFFDL = nd (0 of 6 replicates; controls 0 of 18)
* GFDLEEYGIS | VIYADGRRTFYTDSVK | GENAGTFDI = 470 pM (6 of 6 replicates; controls 0 of 18)
* GFDLDEYGIS | VIYADGKRTAYADSVK | GNVAGTFDL = 98 pM (6 of 6 replicates; controls 0 of 18)
* GFDLNEYGIS | VIYADGMRTQYIDSVK | GNNAGTFDV = 190 pM (4 of 6 replicates; controls 0 of 18)
* GFDLNEYGIS | VIYADGMRTSYADSVK | GQLAGTFDQ = 300 pM (6 of 6 replicates; controls 0 of 18)
* GFDLNEYGIS | VIYADGKRTQYIDSVK | GEIAGTFDS = 890 pM (6 of 6 replicates; controls 0 of 18)
* GFDLNEYGIS | VIYADGRRTMYVDSVK | GEAAGTFDQ = nd (0 of 6 replicates; controls 0 of 18)
* GFSLNEYGIS | VIYADGTRTAYADSVK | GAYDTVAVL = nd (0 of 6 replicates; controls 0 of 18)
* GFDLNEYGIS | VIYADGMRTAYADQVK | GNVAGTFDV = 230 pM (6 of 6 replicates; controls 1 of 18)
* GFSLNEYGIS | VIYADGQRKSYADNVK | GYQGSRVSL = nd (0 of 6 replicates; controls 0 of 18)
* GFDLNEYGIS | VIYADGMRTAYSDDVK | GQVAGTFDV = 560 pM (6 of 6 replicates; controls 0 of 18)
* GFDLNEYGIS | VIYADGMRTAYSDSVK | GNNAGTFDQ = 320 pM (6 of 6 replicates; controls 0 of 18)
* GFELDEYGIS | VIYADGRRTFYADSVK | GENAGTFLM = 12 nM (6 of 6 replicates; controls 0 of 18)
* GFDLEEYGIS | VIYADGMRTAYTDSVK | GNVAGTFDV = 320 pM (6 of 6 replicates; controls 0 of 18)
* GFDLDEYGIS | VIYADGCRVSYANNVK | GLLGKLVVV = nd (0 of 6 replicates; controls 0 of 18)
* GFALNEYGIS | VIYADGIRQVYANKVK | GNQTGTLLI = nd (0 of 6 replicates; controls 0 of 18)
* GFDLNEYGIS | VIYADGVRVAYQNQVK | GNINGSFTF = nd (0 of 6 replicates; controls 0 of 18)
* GMDLEEYGIS | VIYADGMRTYAVDSVK | GDQGGNLLY = nd (0 of 6 replicates; controls 0 of 18)
* GKLLDEYGIS | VIYADGMRMVYADSVK | GNLTDTLLV = nd (0 of 6 replicates; controls 0 of 18)

A selection of 2 entries from above:

- GFSLDEYGIS | VIYADGMRTAYSDSVK | GNVAGTFDL = 680 pM (6 of 6 replicates; controls 0 of 18)
- GFDLNEYGIS | VIYADGMRTAYSDSVK | GNNAGTFDQ = 320 pM (6 of 6 replicates; controls 0 of 18)

The range of this assay differs from that of the first round, and the authors advise against merging the two.
Three control strains display no target. For all heavy chain designs, 1% of the pairings with them gave a signal, with a median of 120 nM and one signal in twenty below 7.0 nM, so weak values seen in few replicates may be background. The control count says in how many pairings with the empty strains this scFv gave a signal.
In the paper, a design with two or fewer of six values counts as a poor binder.
Of ten entries with the parent sequence, four were seen in most replicates (averages 2.2 nM to 240 nM), three in one and three in none, so single entries are noisy.